Patent US9957272B2, “3-hydroxypyrrolidine inhibitors of 5′-methylthioadenosine phosphorylase and nucleosidase” (priority 2009, dated 2018)

By UniProt entry, the sequences of proteins in these tests, tags left out. Where a name states a change or a piece, a line headed by the entry shows the natural chain unless it says otherwise.
UniProt P0AF12: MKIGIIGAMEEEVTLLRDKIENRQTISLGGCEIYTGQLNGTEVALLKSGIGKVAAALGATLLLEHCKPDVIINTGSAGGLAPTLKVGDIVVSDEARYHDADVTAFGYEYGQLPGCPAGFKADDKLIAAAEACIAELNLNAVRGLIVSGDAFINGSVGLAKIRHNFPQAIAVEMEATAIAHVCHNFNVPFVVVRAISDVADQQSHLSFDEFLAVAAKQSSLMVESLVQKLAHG

Biological target: T1, E. coli MTAN (Escherichia coli, UniProt P0AF12)
T1 construct: made in house
Format: biochemical
Experimental: After removal of cell debris by centrifugation, the soluble cell lysates are loaded onto nickel-charged chelating Sepharose (GE Healthcare) and washed with lysis buffer containing 20-150 mM imidazole. The 6His-MTANs are eluted in 250 mM imidazole, desalted using a Sephadex G-15 (GE Healthcare) gel filtration column, equilibrated with low salt buffer (100 mM HEPES, 30 mM KCL, pH 7.6) and concentrated to 40 mg/mL.
Briefly, all experiments are carried out at 25° C., in 1 mL total reaction volume containing 100 mM HEPES buffer, pH 7.5 and 50 mM KCl with 5′-deoxymethylthioadenosine (MTA) as substrate. […] For measuring dissociation constant (Kd) of inhibitors, a xanthine oxidase-coupled assay is carried out. […] Control experiments are carried out in the absence of either inhibitor or MTAN.
[formula] where vs^t and vs are steady state rates in the presence, and absence of inhibitor, respectively; Km is substrate Michaelis constant which is obtained as described above; [S] and [I] are the concentrations of the substrate MTA and inhibitor, respectively. If the concentration of inhibitor is smaller than 10-fold concentration of enzymes, the following correction is then applied: r=I′−(1−v0′/v0)Et
All data fitting is carried out with KaleidaGraph™ ver. 3.5 (Synergy Software).

Row | SMILES | Selectivity for bacterial MTAN
1 | Nc1ncnc2c(CN3C[C@@H](O)[C@H](c4cn(Cc5ccccc5)nn4)C3)c[nH]c12 (racemic) [Example 14, (±)-trans-4-(1-Benzyl-1H-1,2,3-triazol-4-yl)-1[(9-deaza-adenin-9-yl)methyl]-3-hydroxypyrrolidine] | some selectivity for bacterial MTAN
2 | Nc1ncnc2c(CN3C[C@@H](O)[C@H](c4c[nH]nn4)C3)c[nH]c12 (racemic) [Example 15, (±)-trans-1-[(9-Deaza-adenin-9-yl)methyl]-3-hydroxy-4-(1H-1,2,3-triazol-4-yl)pyrrolidine] | some selectivity for bacterial MTAN
